Experimental data taken from the supplement of paper PMC10307832.

Assays:
Assay in all cases: relative viability (nuclei count vs DMSO), 5 days (fraction); higher = more cells survive
[1] = compound: CN1CCN(CC1)C2=CC(=C(C=C2)NC3=NC=C4C(=N3)N(C5=CC=CC=C5C(=O)N4C)C)OC [XMD8-85] + CCNC(=O)c1noc(-c2cc(C(C)C)c(O)cc2O)c1-c1ccc(CN2CCOCC2)cc1 [Luminespib] (partner 0.01 µM); conditions: first compound 0.8 µM
Outline: (§1)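 Lung cancer cell lines in 1536-well plates were dosed by pin tool the day after seeding, either with one drug alone or with a fixed anchor-drug dose plus five library-drug doses (not always all listed) in √10 steps. After 5 days, cells were fixed and their nuclei stained in one step (final 0.05% Triton X-100, 1% formaldehyde, 1 ug/ml Hoechst), then counted on 4× images. Relative viability is the nuclei count in treated wells divided by that in vehicle wells. Values are medians of duplicate plates.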

[2] = compound: CN1CCN(CC1)C2=CC(=C(C=C2)NC3=NC=C4C(=N3)N(C5=CC=CC=C5C(=O)N4C)C)OC [XMD8-85] + COc1cccc2cc(-c3nc([C@H]4CC[C@H](C(=O)O)CC4)n4ncnc(N)c34)[nH]c12 [OSI-027] (partner 0.5 µM)
Outline: as §1

[3] = compound: CN1CCN(CC1)C2=CC(=C(C=C2)NC3=NC=C4C(=N3)N(C5=CC=CC=C5C(=O)N4C)C)OC [XMD8-85] + Cc1nc(NC(=O)N2CCC[C@H]2C(N)=O)sc1-c1ccnc(C(C)(C)C(F)(F)F)c1 [Alpelisib] (partner 2 µM)
Outline: as §1

[4] = compound: CN1CCN(CC1)C2=CC(=C(C=C2)NC3=NC=C4C(=N3)N(C5=CC=CC=C5C(=O)N4C)C)OC [XMD8-85] + Nc1nc2[nH]cc(CCc3ccc(C(=O)N[C@@H](CCC(=O)O)C(=O)O)cc3)c2c(=O)[nH]1 [Pemetrexed] (partner 0.2 µM); conditions: first compound 0.253 µM
Outline: as §1

[5] = compound: CN1CCN(CC1)C2=CC(=C(C=C2)NC3=NC=C4C(=N3)N(C5=CC=CC=C5C(=O)N4C)C)OC [XMD8-85] + NC(=O)Nc1cc(-c2cccc(F)c2)sc1C(=O)N[C@H]1CCCNC1 [AZD7762] (partner 0.2 µM)
Outline: as §1

[6] = compound: CN1CCN(CC1)C2=CC(=C(C=C2)NC3=NC=C4C(=N3)N(C5=CC=CC=C5C(=O)N4C)C)OC [XMD8-85] + CC(C)C[C@H](NC(=O)[C@H](Cc1ccccc1)NC(=O)c1cnccn1)B(O)O [Bortezomib] (partner 0.002 µM); conditions: first compound 0.8 µM
Outline: as §1

[7] = compound: CN1CCN(CC1)C2=CC(=C(C=C2)NC3=NC=C4C(=N3)N(C5=CC=CC=C5C(=O)N4C)C)OC [XMD8-85] + O=C(c1cc(Cc2n[nH]c(=O)c3ccccc23)ccc1F)N1CCN(C(=O)C2CC2)CC1 [Olaparib] (partner 8 µM)
Outline: as §1

[8] = compound: CN1CCN(CC1)C2=CC(=C(C=C2)NC3=NC=C4C(=N3)N(C5=CC=CC=C5C(=O)N4C)C)OC [XMD8-85] + CS(=O)(=O)CCNCc1ccc(-c2ccc3ncnc(Nc4ccc(OCc5cccc(F)c5)c(Cl)c4)c3c2)o1 [Lapatinib] (partner 2 µM)
Outline: as §1

[9] = compound: CN1CCN(CC1)C2=CC(=C(C=C2)NC3=NC=C4C(=N3)N(C5=CC=CC=C5C(=O)N4C)C)OC [XMD8-85] + CC(=O)c1c(C)c2cnc(Nc3ccc(N4CCNCC4)cn3)nc2n(C2CCCC2)c1=O [Palbociclib] (partner 0.5 µM)
Outline: as §1

[10] = compound: CN1CCN(CC1)C2=CC(=C(C=C2)NC3=NC=C4C(=N3)N(C5=CC=CC=C5C(=O)N4C)C)OC [XMD8-85] + CC1(C)CCC(c2ccc(Cl)cc2)=C(CN2CCN(c3ccc(C(=O)NS(=O)(=O)c4ccc(N[C@H](CCN5CCOCC5)CSc5ccccc5)c(S(=O)(=O)C(F)(F)F)c4)cc3)CC2)C1 [Navitoclax] (partner 0.5 µM)
Outline: as §1

[11] = compound: CN1CCN(CC1)C2=CC(=C(C=C2)NC3=NC=C4C(=N3)N(C5=CC=CC=C5C(=O)N4C)C)OC [XMD8-85] + Cc1nc(Nc2ncc(C(=O)Nc3c(C)cccc3Cl)s2)cc(N2CCN(CCO)CC2)n1 [Dasatinib] (partner 0.075 µM)
Outline: as §1

[12] = compound: CN1CCN(CC1)C2=CC(=C(C=C2)NC3=NC=C4C(=N3)N(C5=CC=CC=C5C(=O)N4C)C)OC [XMD8-85] + CS(=O)(=O)N1CCN(Cc2cc3nc(-c4cccc5[nH]ncc45)nc(N4CCOCC4)c3s2)CC1 [Pictilisib] (partner 1 µM)
Outline: as §1

[13] = compound: CN1CCN(CC1)C2=CC(=C(C=C2)NC3=NC=C4C(=N3)N(C5=CC=CC=C5C(=O)N4C)C)OC [XMD8-85] + O=C(CCCCCCC(=O)Nc1ccccc1)NO [Vorinostat] (partner 1 µM); conditions: first compound 0.8 µM
Outline: as §1

[14] = compound: CN1CCN(CC1)C2=CC(=C(C=C2)NC3=NC=C4C(=N3)N(C5=CC=CC=C5C(=O)N4C)C)OC [XMD8-85] + C[C@@H](Oc1cc(-c2cnn(C3CCNCC3)c2)cnc1N)c1c(Cl)ccc(F)c1Cl [Crizotinib] (partner 1 µM); conditions: first compound 0.253 µM
Outline: as §1

[15] = compound: CN1CCN(CC1)C2=CC(=C(C=C2)NC3=NC=C4C(=N3)N(C5=CC=CC=C5C(=O)N4C)C)OC [XMD8-85] + N=C(N)NC(=N)NCCc1ccccc1 [Phenformin] (partner 250 µM)
Outline: as §1

[16] = compound: CN1CCN(CC1)C2=CC(=C(C=C2)NC3=NC=C4C(=N3)N(C5=CC=CC=C5C(=O)N4C)C)OC [XMD8-85] + Nc1ncn([C@H]2C[C@H](O)[C@@H](CO)O2)c(=O)n1 [Decitabine] (partner 2 µM)
Outline: as §1

Work on NCI-H596 yielded a relative viability [1] of 0.916, a relative viability ([2]; first compound 8 µM) of 0.577 and a relative viability ([3]; first compound 0.08 µM) of 0.418. It also gave a relative viability [4] of 0.452.
NCI-H1915 was tested, and the relative viability ([5]; first compound 2.53 µM) was 0.743.
Work on NCI-H2087 yielded a relative viability [6] of 0.813 and a relative viability ([7]; first compound 2.53 µM) of 0.726.
NCI-H727 gave a relative viability ([8]; first compound 0.8 µM) of 0.879, a relative viability ([9]; first compound 0.08 µM) of 0.625 and a relative viability ([9]; first compound 8 µM) of 0.589. For the same cell line, the relative viability ([10]; first compound 0.8 µM) was 0.418.
Work on NCI-H1993 yielded a relative viability ([3]; first compound 0.253 µM) of 0.654, a relative viability ([10]; first compound 0.253 µM) of 0.936 and a relative viability ([7]; first compound 0.08 µM) of 0.961.
ABC-1 was tested, and the relative viability ([11]; first compound 0.253 µM) was 0.522, the relative viability ([12]; first compound 8 µM) was 0.425 and the relative viability ([9]; first compound 8 µM) was 0.503. For the same cell line, the relative viability ([3]; first compound 8 µM) was 0.705.
Work on NCI-H2023 yielded a relative viability [13] of 0.753, a relative viability [1] of 0.807 and a relative viability ([10]; first compound 8 µM) of 0.679.
NCI-H2228 was tested, and the relative viability ([8]; first compound 2.53 µM) was 0.954 and the relative viability ([3]; first compound 0.08 µM) was 0.718.
NCI-H1355 was tested, and the relative viability ([11]; first compound 8 µM) was 0.577, the relative viability ([9]; first compound 0.8 µM) was 0.621 and the relative viability ([3]; first compound 8 µM) was 0.848. The relative viability ([5]; first compound 8 µM) was 0.589.
For NCI-H2342, the relative viability ([2]; first compound 0.8 µM) was 0.687.
EMC-BAC-2 was tested, and the relative viability [14] was 0.656, the relative viability ([15]; first compound 0.8 µM) was 0.511 and the relative viability ([16]; first compound 0.8 µM) was 0.936.
Work on A549 yielded a relative viability ([12]; first compound 2.53 µM) of 0.511.
NCI-H1437 gave a relative viability ([15]; first compound 0.08 µM) of 0.277 and a relative viability ([16]; first compound 2.53 µM) of 0.589.
